Patent publication US20250009852A1, “DEPLETING EGFR AND HER2 OVERCOMES RESISTANCE TO EGFR INHIBITORS IN COLORECTAL CANCER” (Health Research, Inc., priority 2021, published 2025)

Experiments:
[1] = system: SW48 cells; assay: MTT cell proliferation assay; type: cell-based, human; settings: 24, 48 or 72 h, PEPD^G278D 5-250 nM, cetuximab 2.75-275 nM, panitumumab 2.77-277 nM
Experimental: (§1) Cells were grown in 96-well plates. […] The cells were then washed with PBS and mixed with dimethyl sulfoxide (150 μl per well), and cell density was determined by measuring the reduction of MTT to formazan spectroscopically at 570 nm using a Synergy 2 Multi-Mode Microplate Reader (BioTek). In experiments involving siRNA transfection, 2×10^3 HCT116 cells or 6×10^3 HT29 cells were seeded to each well of 96-well plates overnight and then transfected 25 nM siRNA (scramble siRNA, EGFR siRNA or HER2 siRNA) as described above, followed by MTT assay.

[2] = system: SW620 cells; assay: MTT cell proliferation assay; type: cell-based, human; settings: SW620 cells (no EGFR, no HER2); 24, 48 or 72 h
Experimental: as §1

[3] = system: HER3, MET, IGF1R, SRC, AKT, ERK, MEK; assay: Western blotting of whole cell lysates: other RTKs and downstream signaling proteins; type: cell-based, human; settings: 48 h
Experimental: To prepare whole cell lysates, cells were washed with PBS twice, mixed with 1× cell lysis buffer from Cell Signaling Technology supplemented with 2 mM PMSF and a protease inhibitor cocktail from Roche Applied Science, placed on ice for 10 min, sonicated at 0-4° C. to enhance cell lysis using a Branson Model 450 sonifier, and finally centrifuged at 13,000 g for 10 min at 4° C., and the supernatant fraction is collected as whole cell lysate. Tumor and samples were mixed with RIPA buffer (25 mM Tris-HCl, PH7.6, 150 mM NaCl, 1% Nonidet P-40, 1% sodium deoxycholate, and 0.1% SDS), which was supplemented with 2 mM PMSF, the protease inhibitor cocktail mentioned above, phosphatase inhibitor cocktail 2 and phosphatase inhibitor cocktail 3 from Sigma-Aldrich at 14.3 μl buffer per mg tissue, and homogenized in a Dounce homogenizer. The homogenates were cleared by centrifugation at 13,000 g for 15 min at 4° C.
Protein concentrations in all samples were measured using the BCA Assay Kit. For Western blotting, each sample was mixed with 4× loading dye, heated for 5 min at 95° C., and resolved by SDS-PAGE (8-12.5%). Proteins were transferred to polyvinylidene fluoride membrane, probed with specific antibodies, and detected using either Luminata Classico (Millipore) or Luminata Cresendo (Millipore). For IP, cell lysates (0.5 mg protein/sample) were incubated with a desired antibody overnight at 4° C., followed by incubation of 500 μl sample with 30 μl G-Sepharose beads (2 mg/ml) for 1 h at RT. The beads were washed three times with IP buffer, suspended in 2× SDS loading buffer, boiled for 5 min, and analyzed by Western blotting.

[4] = system: SW48 tumors; assay: Subcutaneous SW48 tumors in SCID mice; type: in vivo, mouse; settings: sc SW48 tumors; EP 0.5 mg/kg ip daily plus PEPD^G278D 4 mg/kg ip three times weekly, or cetuximab 15 mg/kg ip twice weekly
Experimental: (§2) SCID mice (C.B.17 SCID) were bred by the Laboratory Animal Shared Resource at Roswell Park Comprehensive Cancer Center. Male mice at 7-8 weeks of age were used. All mouse experiments were approved by the Institutional Animal Care and Use Committee at Roswell Park Comprehensive Cancer Center under protocol 1022M. We established subcutaneous tumors by inoculating 1×10^6 HCT116 cells, 4×10^6 HT29 cells, or 2×10^6 SW48 cells to the flank of each mouse in 100 μl of serum free medium. Colon patient-derived xenograft (PDX) 14650 was established from a liver metastatic lesion in a patient treated at Roswell Park Comprehensive Cancer Center. Tumor fragments (˜20 mm^3) from donor mice were implanted into the flank of each mouse subcutaneously using a trocar. […] Subcutaneous tumor volume was measured using length ×width^2÷2. Tumor volume was measured three times each week. Orthotopic tumor growth was monitored by bioluminescence weekly. Mice were given D-luciferin (150 mg/kg) by ip and anesthetized with isoflurane, and tumor burden was measured by bioluminescence using the IVIS Spectrum In Vivo Imaging System (PerkinElmer). Drug treatment was started when significant tumor growth was detected. […] The mice were closely monitored for sign of adverse effects and weighed three times each week. […]

[5] = system: HCT116 tumors; assay: Subcutaneous HCT116 tumors in SCID mice; type: in vivo, mouse; settings: sc HCT116 tumors; EP plus PEPD^G278D 4 mg/kg ip three times weekly, or cetuximab 15 mg/kg ip twice weekly
Experimental: as §2

[6] = system: HT29 tumors; assay: Subcutaneous HT29 tumors in SCID mice; type: in vivo, mouse; settings: sc HT29 tumors; EP plus PEPD^G278D 4 mg/kg ip three times weekly, or cetuximab 15 mg/kg ip twice weekly
Experimental: as §2

[7] = system: EGFR and HER2; assay: Western blotting of tumor homogenates: EGFR and HER2; type: in vivo, mouse; settings: 24 h after the final dose
Experimental: (§3) To prepare whole cell lysates, cells were washed with PBS twice, mixed with 1× cell lysis buffer from Cell Signaling Technology supplemented with 2 mM PMSF and a protease inhibitor cocktail from Roche Applied Science, placed on ice for 10 min, sonicated at 0-4° C. to enhance cell lysis using a Branson Model 450 sonifier, and finally centrifuged at 13,000 g for 10 min at 4° C., and the supernatant fraction is collected as whole cell lysate. […]
(§4) Protein concentrations in all samples were measured using the BCA Assay Kit. […] Proteins were transferred to polyvinylidene fluoride membrane, probed with specific antibodies, and detected using either Luminata Classico (Millipore) or Luminata Cresendo (Millipore). […] The beads were washed three times with IP buffer, suspended in 2× SDS loading buffer, boiled for 5 min, and analyzed by Western blotting.
(§5) SCID mice (C.B.17 SCID) were bred by the Laboratory Animal Shared Resource at Roswell Park Comprehensive Cancer Center. […] Subcutaneous tumor volume was measured using length ×width^2÷2. Tumor volume was measured three times each week. Orthotopic tumor growth was monitored by bioluminescence weekly. Mice were given D-luciferin (150 mg/kg) by ip and anesthetized with isoflurane, and tumor burden was measured by bioluminescence using the IVIS Spectrum In Vivo Imaging System (PerkinElmer). Drug treatment was started when significant tumor growth was detected. […]

[8] = system: HER3, IGF1R, MET, SRC, AKT, ERK, MEK, NRAS, HRAS, caspase 3; assay: Western blotting of tumor homogenates: other signaling proteins; type: in vivo, mouse; settings: SW48 tumors, 24 h after the final dose
Experimental: as §3, §4, §5

With cetuximab [reference compound] the “cell growth measured by MTT assay” value [1] was “inhibited the growth of SW48 cells in a time- and concentration-dependent manner”, the “cell growth measured by MTT assay” value [2] was “inactive” and the “effect on MET and ERK” value ([3]; HCT116, HT29 and SW620 cells, 275-277 nM) was “neither cetuximab nor panitumumab had any effect”. The “effect on any of the signaling proteins” value ([3]; HCT116 and HT29 cells, 275 nM) was “no effect”, the “effect on HER3 and IGF1R” value ([3]; SW48 cells, 275 nM) was “no effect” and the “inhibition of tumor growth at the end of treatment” value [4] was 85.8%. For the same substance, the tumor growth [5] was “neither agent inhibited the growth”, the tumor growth [6] was “neither agent inhibited the growth” and the “effect on EGFR, HER2 and ERK in tumors” value ([7]; HCT116 and HT29 tumors) was “neither PEPD^G278D nor cetuximab had any effect”. For the same substance, the “expression and phosphorylation of EGFR and HER2 in tumors” value ([7]; SW48 tumors) was “only decreased the expression and phosphorylation of EGFR” and the “ERK phosphorylation in tumors” value [8] was “decreased ERK phosphorylation”.
